scFv variants of Ab-14 (heavy chain) against a SARS-CoV-2 spike peptide

Data: MIT Lincoln Laboratory AlphaSeq set, Engelhart et al. 2022, doi:10.1038/s41597-022-01779-4, as distributed in FLAb.

The target is the same throughout: PDVDLGDISGINAS, from the HR2 region of SARS-CoV-2 spike.

Parent scFv Ab-14: VH joined to VL by the linker GGGGSGGGGSGGGGS. Changes lie in the heavy chain CDRs alone.
VH: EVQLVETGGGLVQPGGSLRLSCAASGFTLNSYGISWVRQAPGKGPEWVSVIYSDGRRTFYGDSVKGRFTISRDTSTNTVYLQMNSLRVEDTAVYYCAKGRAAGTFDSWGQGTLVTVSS
VL: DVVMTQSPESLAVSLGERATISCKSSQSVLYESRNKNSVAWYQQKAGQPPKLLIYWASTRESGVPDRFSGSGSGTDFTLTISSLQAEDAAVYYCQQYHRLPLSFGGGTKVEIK

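Phage display of a naive human antibody library on the peptide gave the parent. The library (AAYL49) carries one to three amino acid substitutions per variant, with no insertions or deletions. AlphaSeq pools MATa yeast showing the antibodies with MATalpha yeast showing the peptide. Binding brings cells together so that they mate, and sequencing counts the barcode pairs among the diploids. Read counts were normalised to the haploid input and turned into Kd by a linear fit to BCL2-family pairs of known affinity, for each replicate. Mating was done three times.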

Changes read parent residue, position, new residue, counted from the first residue of the VH shown. Numbers give log10(Kd / nM), so 0 is 1 nM and 3 is 1 µM. Smaller is tighter. An entry "n.d." has no value in the source: the pair was not observed among the diploids in that replicate. This suggests poor binding but is not conclusive.

{"changes": "R56T R57N G99H", "log10 Kd, replicates": "n.d. / n.d. / n.d.", "signal with controls": "0/9"}
{"changes": "I34Q F105N D106E", "log10 Kd, replicates": "n.d. / 4.39 / n.d.", "signal with controls": "3/9 (3.72)"}
{"changes": "I51E Y52V F59I", "log10 Kd, replicates": "n.d. / n.d. / n.d.", "signal with controls": "0/9"}
{"changes": "S35Y G55Q", "log10 Kd, replicates": "n.d. / n.d. / n.d.", "signal with controls": "1/9 (4.01)"}
{"changes": "R57S Y60L", "log10 Kd, replicates": "n.d. / n.d. / n.d.", "signal with controls": "1/9 (3.87)"}
{"changes": "S31W G33F F105K", "log10 Kd, replicates": "n.d. / n.d. / 3.69", "signal with controls": "0/9"}
{"changes": "D62P A101Y G103F", "log10 Kd, replicates": "n.d. / n.d. / n.d.", "signal with controls": "0/9"}
{"changes": "I34A K65H F105G", "log10 Kd, replicates": "3.69 / n.d. / 4.95", "signal with controls": "5/9 (4.83)"}
{"changes": "Y52H A102M G103W", "log10 Kd, replicates": "n.d. / n.d. / n.d.", "signal with controls": "1/9 (3.40)"}
{"changes": "F27L R56E F105Y", "log10 Kd, replicates": "n.d. / n.d. / n.d.", "signal with controls": "0/9"}
{"changes": "G26S G33S S35Q", "log10 Kd, replicates": "n.d. / n.d. / n.d.", "signal with controls": "3/9 (4.31)"}
{"changes": "G26Y Y52N R57M", "log10 Kd, replicates": "n.d. / 3.13 / n.d.", "signal with controls": "2/9 (3.05)"}
{"changes": "L29V Y52D A102R", "log10 Kd, replicates": "5.85 / n.d. / 4.02", "signal with controls": "5/9 (3.86)"}
{"changes": "G33L V50H R57K", "log10 Kd, replicates": "3.69 / 4.68 / 3.92", "signal with controls": "2/9 (4.93)"}
{"changes": "I51W K65W S107V", "log10 Kd, replicates": "n.d. / n.d. / n.d.", "signal with controls": "3/9 (4.55)"}
{"changes": "S31K Y32G S53R", "log10 Kd, replicates": "n.d. / n.d. / n.d.", "signal with controls": "0/9"}
{"changes": "G26L S31P T58V", "log10 Kd, replicates": "n.d. / n.d. / n.d.", "signal with controls": "0/9"}
{"changes": "T28W S63M R100A", "log10 Kd, replicates": "2.36 / 1.98 / n.d.", "signal with controls": "0/9"}
{"changes": "S35I V50W R56T", "log10 Kd, replicates": "n.d. / n.d. / n.d.", "signal with controls": "3/9 (4.80)"}
{"changes": "S35F A102W F105G", "log10 Kd, replicates": "n.d. / n.d. / 4.36", "signal with controls": "3/9 (4.00)"}
{"changes": "D54C G55T R57W", "log10 Kd, replicates": "n.d. / n.d. / n.d.", "signal with controls": "0/9"}
{"changes": "V50R G99M", "log10 Kd, replicates": "n.d. / n.d. / n.d.", "signal with controls": "0/9"}
{"changes": "D54K F59K V64M", "log10 Kd, replicates": "n.d. / n.d. / 4.55", "signal with controls": "3/9 (4.90)"}

The first 2 variants above that were never detected:

changes,"log10 Kd, replicates",signal with controls
R56T R57N G99H,n.d. / n.d. / n.d.,0/9
I51E Y52V F59I,n.d. / n.d. / n.d.,0/9

Empty control strains, which show no peptide, gave a signal in 15% of pairings with library AAYL49; the median was 4.06 and 95% of these signals were weaker than 2.83. No background was subtracted. The control count says in how many pairings with the empty strains this scFv gave a signal, with their mean in brackets.